Reference: ChEMBL document CHEMBL1155538 (Bioorg Med Chem Lett, 2010)

Amino acid sequences for entries named in this document (tags omitted). A change or cut given only in a name is not applied to a line headed by its entry.
UniProt Q12809: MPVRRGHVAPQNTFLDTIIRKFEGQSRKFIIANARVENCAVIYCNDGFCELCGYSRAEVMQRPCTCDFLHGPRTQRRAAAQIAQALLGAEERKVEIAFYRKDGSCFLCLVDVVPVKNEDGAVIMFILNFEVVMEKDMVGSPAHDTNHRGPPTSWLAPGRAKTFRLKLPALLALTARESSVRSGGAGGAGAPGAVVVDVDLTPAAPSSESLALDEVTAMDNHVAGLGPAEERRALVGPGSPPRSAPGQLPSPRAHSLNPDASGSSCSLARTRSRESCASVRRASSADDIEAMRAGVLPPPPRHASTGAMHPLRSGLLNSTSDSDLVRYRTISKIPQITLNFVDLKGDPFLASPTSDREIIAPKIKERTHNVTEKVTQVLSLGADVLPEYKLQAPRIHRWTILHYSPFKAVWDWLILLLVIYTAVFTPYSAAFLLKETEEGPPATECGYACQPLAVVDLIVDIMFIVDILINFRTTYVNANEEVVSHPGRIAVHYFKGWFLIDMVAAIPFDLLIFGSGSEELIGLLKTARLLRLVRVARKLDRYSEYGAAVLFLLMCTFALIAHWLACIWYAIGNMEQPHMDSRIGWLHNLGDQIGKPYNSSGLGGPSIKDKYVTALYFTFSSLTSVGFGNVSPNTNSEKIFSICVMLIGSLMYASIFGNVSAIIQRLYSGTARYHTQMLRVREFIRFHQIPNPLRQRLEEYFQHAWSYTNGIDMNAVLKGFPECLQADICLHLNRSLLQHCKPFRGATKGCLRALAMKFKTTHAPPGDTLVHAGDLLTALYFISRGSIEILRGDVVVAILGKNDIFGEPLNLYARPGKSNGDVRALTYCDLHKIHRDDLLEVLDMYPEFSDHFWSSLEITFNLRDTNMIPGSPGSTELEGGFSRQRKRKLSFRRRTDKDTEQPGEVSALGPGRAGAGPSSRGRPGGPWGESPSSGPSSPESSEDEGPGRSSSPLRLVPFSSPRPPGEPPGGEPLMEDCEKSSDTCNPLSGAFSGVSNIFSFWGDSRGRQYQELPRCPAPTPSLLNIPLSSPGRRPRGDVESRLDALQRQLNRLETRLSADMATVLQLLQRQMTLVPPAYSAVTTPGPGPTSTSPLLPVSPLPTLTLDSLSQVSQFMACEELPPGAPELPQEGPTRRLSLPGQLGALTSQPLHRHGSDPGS

Legend:
Liver microsomes = test: Half life in human liver microsomes; assay type: ADME, Microsome
[1] = biological target: Voltage-gated inwardly rectifying potassium channel KCNH2 (Homo sapiens, UniProt Q12809); test: Displacement of [3H]dofetilide from human ERG
[2] = Inhibition of tetrodotoxin-sensitive sodium channel

SMILES	t1/2 (Liver microsomes) [h]	IC50 [1] [µM]	IC50 [2] [µM]
COc1cccc(F)c1CC(c1ccccc1)N1CCNCC1 (stereo not drawn)	1.55	–	–
Fc1cccc(OC(F)F)c1CC(c1ccccc1)N1CCNCC1 (stereo not drawn)	–	10.4	1.83
